The target in one experiment is P38A (Homo sapiens, UniProt Q16539). The experiment can be described thus: IC50 of inhibitor for P38A kinase. As to conditions: read-out: IC50 for P38A.
In the next experiment the target is JNK2 (Homo sapiens, UniProt P45984). In words: IC50 of inhibitor for JNK2 kinase. The note with it: read-out: IC50 for JNK2.

Protein sequences, listed by entry. Tags and fused reporters are not part of them. Lines headed by an entry give the natural chain unless they say otherwise; changes in a name come on top. Residues count along the entry.
UniProt Q16539, 2-360 limits assumed: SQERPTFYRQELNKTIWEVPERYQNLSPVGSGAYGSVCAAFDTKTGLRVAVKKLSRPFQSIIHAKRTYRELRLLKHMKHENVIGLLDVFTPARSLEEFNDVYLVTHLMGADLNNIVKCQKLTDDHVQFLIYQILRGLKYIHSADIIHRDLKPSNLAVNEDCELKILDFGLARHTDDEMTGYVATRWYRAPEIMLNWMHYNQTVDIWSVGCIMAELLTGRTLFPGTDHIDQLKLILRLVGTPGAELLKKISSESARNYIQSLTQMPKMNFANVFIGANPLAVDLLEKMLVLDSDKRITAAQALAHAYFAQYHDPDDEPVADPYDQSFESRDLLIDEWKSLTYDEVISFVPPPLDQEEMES
UniProt P45984, whole entry: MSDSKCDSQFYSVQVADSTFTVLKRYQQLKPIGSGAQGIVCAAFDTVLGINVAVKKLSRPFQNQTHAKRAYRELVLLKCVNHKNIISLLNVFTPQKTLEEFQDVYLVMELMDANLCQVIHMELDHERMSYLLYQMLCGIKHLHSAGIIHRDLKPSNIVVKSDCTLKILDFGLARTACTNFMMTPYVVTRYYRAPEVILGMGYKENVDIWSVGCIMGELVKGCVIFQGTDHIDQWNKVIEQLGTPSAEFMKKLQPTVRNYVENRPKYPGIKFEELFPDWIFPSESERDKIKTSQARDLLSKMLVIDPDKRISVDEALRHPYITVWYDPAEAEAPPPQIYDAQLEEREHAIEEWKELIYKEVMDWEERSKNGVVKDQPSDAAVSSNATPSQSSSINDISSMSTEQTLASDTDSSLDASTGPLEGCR

The structures appear in SMILES notation. Where only a bound is given, the exact number is not on record here.

`CS(=O)(=O)c1ccc(Cl)c(-c2n[nH]c3nc(Oc4ccc(F)cc4F)ncc23)c1`: the IC50 (in general, the concentration that gives 50% inhibition) at P38A is 6 nM; at JNK2 it was > 20000 nM.

The record behind these values is patent US20090006059A1.
